Experimental data published in patent US20190345250A1, “ANTIBODY DRUG CONJUGATES” (NOVARTIS AG, priority 2013, published 2019).

Test system: Kato-III cells
Test: Complement dependent cytotoxicity (CDC) with rabbit complement
Format: cell-based
Conditions: rabbit complement one to six, two hour incubation

Erbitux
complement dependent cytotoxicity (CDC): No evidence of CDC
